Assay [1] has as its target Trypsin. The assay is described as follows: display phage binding to immobilised trypsin, 2 washes.
In a further assay the target is Kallikrein. The assay is described as follows: display phage binding to immobilised protease.
For a further assay, the target named is Thrombin. The assay is described as follows: display phage binding to immobilised protease.
Assay [2] concerns the target Trypsin. The assay is described as follows: display phage binding to immobilised protease.
The next assay concerns the target human plasmin (human) (UniProt P00747). The assay is described as follows: display phage binding to immobilised protease.

With “Bovine Pancreatic Trypsin Inhibitor (BPTI) (from UniProt P00974 36-93)”, the relative binding (LACI-K1 phage = unit) (fold of LACI-K1 phage) in the assay with Trypsin [1] is 0.8; with Kallikrein, 1.7; in the assay with Thrombin it was 1.1; with Trypsin [2], 0.3.
As to “Bovine Pancreatic Trypsin Inhibitor (BPTI) (from UniProt P00974 36-93) (other; other documents disagree on this pair)”, the relative binding (LACI-K1 phage = unit) (fold of LACI-K1 phage) with human plasmin (human) came to 88.

Source of the values: patent publication US20090036365A1.
